From ChEMBL document CHEMBL2384966, “Probes for narcotic receptor mediated phenomena. 47. Novel C4a- and N-substituted-1,2,3,4,4a,9a-hexahydrobenzofuro[2,3-c]pyridin-6-ols” (Bioorg Med Chem, 2013) come the findings set out here.

Chains of the proteins cited; added tags and fusions are not shown.
UniProt P35372, whole entry, looked up: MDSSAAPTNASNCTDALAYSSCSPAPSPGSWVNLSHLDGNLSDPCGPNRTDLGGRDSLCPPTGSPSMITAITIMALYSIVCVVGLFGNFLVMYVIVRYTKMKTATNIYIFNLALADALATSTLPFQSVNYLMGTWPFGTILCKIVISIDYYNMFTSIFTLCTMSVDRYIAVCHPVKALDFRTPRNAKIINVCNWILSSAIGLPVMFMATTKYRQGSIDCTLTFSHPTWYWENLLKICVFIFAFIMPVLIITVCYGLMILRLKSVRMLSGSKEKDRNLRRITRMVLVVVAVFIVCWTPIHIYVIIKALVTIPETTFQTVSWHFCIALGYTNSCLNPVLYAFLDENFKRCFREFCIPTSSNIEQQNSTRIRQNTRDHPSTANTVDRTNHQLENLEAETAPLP
UniProt P41143, whole entry, looked up: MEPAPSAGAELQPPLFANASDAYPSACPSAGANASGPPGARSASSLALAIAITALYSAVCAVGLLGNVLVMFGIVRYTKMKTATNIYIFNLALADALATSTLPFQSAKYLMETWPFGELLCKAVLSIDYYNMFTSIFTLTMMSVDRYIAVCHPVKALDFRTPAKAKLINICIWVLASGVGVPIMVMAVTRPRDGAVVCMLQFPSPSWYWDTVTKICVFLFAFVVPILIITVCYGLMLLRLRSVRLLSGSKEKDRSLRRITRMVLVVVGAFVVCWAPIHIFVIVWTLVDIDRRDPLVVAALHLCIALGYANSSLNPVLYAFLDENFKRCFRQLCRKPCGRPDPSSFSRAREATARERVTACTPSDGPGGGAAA

Active and inactive are the calls of the source. The rule behind the calls is not given here.

One may read the Emax as the maximal effect, on the per cent scale that the assay sets.

The species entered for experiment [1] is Homo sapiens. As to the kind of experiment: Selectivity ratio of Ki for human recombinant kappa opioid receptor to Ki for human recombinant delta opioid receptor.
For experiment [2], the species on record is Homo sapiens. As to the kind of experiment: Selectivity ratio of Ki for human recombinant kappa opioid receptor to Ki for human recombinant mu opioid receptor.
Experiment [3] is filed under the species Homo sapiens. The experiment is described as follows: Selectivity ratio of Ki for human recombinant mu opioid receptor to Ki for human recombinant delta opioid receptor.
The target of experiment [4] is T1, Mu-type opioid receptor (Homo sapiens, UniProt P35372). To be noted: CHO.
Experiment [5] concerns the target T1, Mu-type opioid receptor. As to the kind of experiment: Partial agonist activity at human recombinant mu opioid receptor expressed in CHO cell membranes assessed as stimulation of [35S]GTPgammaS binding after 3 hrs by liquid scintillation counting analysis. In general terms: GTPγS is a poorly hydrolysed GTP analogue; its binding reports G protein activation.
In experiment [6] the target is T2, Delta-type opioid receptor (Homo sapiens, UniProt P41143). As to the kind of experiment: Antagonist activity at human recombinant delta opioid receptor expressed in mouse/rat NG108-15 cell membranes assessed as inhibition of SNC80-induced [35S]GTPgammaS binding by liquid scintillation counting analysis. The class given is functional.
In experiment [7] the target is T2, Delta-type opioid receptor. As to the kind of experiment: Agonist activity at human recombinant delta opioid receptor expressed in mouse/rat NG108-15 cell membranes assessed as stimulation of [35S]GTPgammaS binding at 500 nM after 3 hrs by liquid scintillation counting analysis relative to control.
The target of experiment [8] is T2, Delta-type opioid receptor. As to the kind of experiment: Agonist activity at human recombinant delta opioid receptor expressed in mouse/rat NG108-15 cell membranes assessed as stimulation of [35S]GTPgammaS binding after 3 hrs by liquid scintillation counting analysis.

Take `CCC[C@@]12CCN(C)C[C@@H]1Oc1ccc(O)cc12`: the Ratio Ki in the experiment filed under Homo sapiens [1] is 3; in the experiment listed under Homo sapiens [2], 20; in the experiment filed under Homo sapiens [3], 0.2.

Consider `C=CCN1CC[C@@]2(CCc3ccccc3)c3cc(O)ccc3O[C@H]2C1`, for which the Ratio Ki in the experiment filed under Homo sapiens [1] turned out to be 1.5; in the experiment listed under Homo sapiens [2] it was 3; in the experiment listed under Homo sapiens [3], 0.4. Also, the figures for the Ke (at Mu-type opioid receptor [4]; in experiment [6]) were 37 nM and 43 nM, respectively. The ED50 entry on Mu-type opioid receptor [5] is “inactive”.

In the case of `CN1CC[C@@]2(CCCc3ccccc3)c3cc(O)ccc3O[C@H]2C1`, the Ratio Ki is 7 in the experiment filed under Homo sapiens [1], 1.4 in the experiment listed under Homo sapiens [2] and 5 in the experiment listed under Homo sapiens [3]. The Ke in experiment [6] was found to be 88 nM.

`CN1CC[C@@]2(CCc3ccccc3)c3cc(O)ccc3O[C@H]2C1` (racemic): the figures for the Ratio Ki in the experiment filed under Homo sapiens [1], in the experiment filed under Homo sapiens [2] and in the experiment filed under Homo sapiens [3] were 6, 54 and 0.1, respectively.

As for `C=CCN1C[C@H](C)N([C@H](c2ccc(C(=O)NCC)cc2)c2cccc(OC)c2)C[C@H]1C`, the maximum response (Emax) in experiment [7] was 104%. Besides, the ED50 in experiment [8] was determined as 0.055 µM.

As to `CN1CC[C@@]2(Cc3ccccc3)c3cc(O)ccc3O[C@H]2C1` (racemic), the results for the Ratio Ki in the experiment listed under Homo sapiens [1], in the experiment filed under Homo sapiens [2] and in the experiment listed under Homo sapiens [3] were 45, 48 and 0.9, respectively.

On to `CN1CC[C@@]2(CCCCc3ccccc3)c3cc(O)ccc3O[C@H]2C1`, for which the Ratio Ki worked out at 6 in the experiment listed under Homo sapiens [1], 4 in the experiment listed under Homo sapiens [2] and 2 in the experiment listed under Homo sapiens [3]. In experiment [6], the Ke is greater than 200 nM.

For the molecule `CCCCC[C@@]12CCN(C)C[C@@H]1Oc1ccc(O)cc12`, the Ratio Ki in the experiment listed under Homo sapiens [1] was determined as 29; in the experiment listed under Homo sapiens [2], 11; in the experiment filed under Homo sapiens [3], 3. The Ke in experiment [6] is greater than 200 nM.
